Source: US20260272932A1, “METHOD OF TREATING EARLY BREAST CANCER WITH RIBOCICLIB IN COMBINATION WITH AN AROMATASE INHIBITOR” (Novartis AG, priority 2023, published 2026)

System: patients with advanced BC
Test: MONALEESA-2, -3 and -7: QTcF prolongation in ribociclib arms

CN(C)C(=O)c1cc2cnc(Nc3ccc(N4CCNCC4)cn3)nc2n1C1CCCC1 [Ribociclib, ribociclib]
patients with newly occurring post baseline QTcF of >480 msec (MONALEESA-2 ribociclib arm): 6.9% | patients with newly occurring post baseline QTcF of >480 msec (MONALEESA-3 ribociclib arm): 5.6% | patients with newly occurring post baseline QTcF of >480 msec (MONALEESA-7 (NSAI subgroup) ribociclib arm): 5.3%
